Data taken from patent US20140100156A1 (SANOFI, priority 2012, published 2014).

Sequences of proteins named here, by UniProt entry; tags and fusion partners are left off. Residues count along the entry.
UniProt P43220, 24-463: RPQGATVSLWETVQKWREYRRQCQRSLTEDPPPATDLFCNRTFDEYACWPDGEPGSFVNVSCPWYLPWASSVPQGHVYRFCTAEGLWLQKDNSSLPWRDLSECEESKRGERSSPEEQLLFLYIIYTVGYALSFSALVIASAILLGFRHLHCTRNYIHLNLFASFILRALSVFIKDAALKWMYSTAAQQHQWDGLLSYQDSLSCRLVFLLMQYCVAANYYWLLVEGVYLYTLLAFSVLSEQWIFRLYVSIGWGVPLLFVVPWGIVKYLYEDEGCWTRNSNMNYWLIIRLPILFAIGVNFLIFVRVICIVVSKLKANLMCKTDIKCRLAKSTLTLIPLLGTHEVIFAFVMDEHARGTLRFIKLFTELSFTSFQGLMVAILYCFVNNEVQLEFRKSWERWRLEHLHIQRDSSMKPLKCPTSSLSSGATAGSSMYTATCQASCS
UniProt P47871, 26-477: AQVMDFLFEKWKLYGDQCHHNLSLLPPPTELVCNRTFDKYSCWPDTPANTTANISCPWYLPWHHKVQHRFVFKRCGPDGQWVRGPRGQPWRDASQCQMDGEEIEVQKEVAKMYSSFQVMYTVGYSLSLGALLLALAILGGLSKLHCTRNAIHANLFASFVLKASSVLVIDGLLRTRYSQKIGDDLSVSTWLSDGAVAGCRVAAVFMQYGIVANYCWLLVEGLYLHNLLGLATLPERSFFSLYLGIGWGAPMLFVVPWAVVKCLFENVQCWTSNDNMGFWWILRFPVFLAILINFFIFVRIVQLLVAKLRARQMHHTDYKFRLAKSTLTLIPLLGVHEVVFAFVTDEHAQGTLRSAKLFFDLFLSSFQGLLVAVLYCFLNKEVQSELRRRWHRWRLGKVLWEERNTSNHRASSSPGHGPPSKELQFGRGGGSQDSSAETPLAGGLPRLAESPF

Key:
[1] = target: T1, human GLP-1 receptor (Homo sapiens, UniProt P43220); test: cAMP response (HTRF) of HEK-293 cells stably expressing human GLP-1 receptor; format: cell-based; conditions: Table 5; cAMP, HEK-293; read-out: EC50 hGLP-1R
T1 construct: expressed in transfected cells; host or cells: HEK-293

[2] = target: T2, human glucagon receptor (Homo sapiens, UniProt P47871); test: cAMP response (HTRF) of HEK-293 cells stably expressing human glucagon receptor; format: cell-based; conditions: Table 5; cAMP, HEK-293; read-out: EC50 hGlucagon-R
T2 construct: expressed in transfected cells; host or cells: HEK-293

SMILES | EC50 [1] [nM] | EC50 [2] [pM]
CCCCCCCCCCCCCCCC(=O)N[C@@H](CCC(=O)NCCCC[C@H](NC(=O)[C@H](CCC(N)=O)NC(=O)[C@H](CCCCN)NC(=O)[C@H](CO)NC(=O)[C@H](CC(C)C)NC(=O)[C@H](CC(=O)O)NC(=O)[C@H](CO)NC(=O)[C@@H](NC(=O)[C@H](Cc1ccccc1)NC(=O)[C@@H](NC(=O)CNC(=O)[C@H](CCC(N)=O)NC(=O)[C@@H](CO)NC(=O)[C@@H](N)Cc1c[nH]cn1)[C@@H](C)O)[C@@H](C)O)C(=O)N[C@@H](CC(=O)O)C(=O)N[C@@H](CO)C(=O)N[C@@H](CCCNC(=N)N)C(=O)N[C@@H](CCCNC(=N)N)C(=O)N[C@@H](C)C(=O)N[C@@H](CCC(N)=O)C(=O)N[C@@H](CC(=O)O)C(=O)N[C@@H](Cc1ccccc1)C(=O)N[C@H](C(=O)N[C@@H](CCC(=O)O)C(=O)N[C@@H](Cc1c[nH]c2ccccc12)C(=O)N[C@@H](CC(C)C)C(=O)N[C@@H](CCCCN)C(=O)N[C@@H](CC(N)=O)C(=O)N[C@H](C)C(=O)NCC(=O)N1CCC[C@H]1C(=O)N[C@@H](CO)C(=O)N[C@@H](CO)C(=O)NCC(=O)N[C@@H](C)C(=O)N1CCC[C@H]1C(=O)N1CCC[C@H]1C(=O)N1CCC[C@H]1C(=O)N[C@@H](CO)C(N)=O)[C@@H](C)CC)C(=O)O [compound 94] | 0.0052 | 2.1
CCCCCCCCCCCCCCCC(=O)N[C@@H](CCC(=O)NCCCC[C@H](NC(=O)[C@H](CCC(N)=O)NC(=O)[C@H](CCCCN)NC(=O)[C@H](CO)NC(=O)[C@H](CC(C)C)NC(=O)[C@H](CC(=O)O)NC(=O)[C@H](CO)NC(=O)[C@@H](NC(=O)[C@H](Cc1ccccc1)NC(=O)[C@@H](NC(=O)CNC(=O)[C@H](CCC(N)=O)NC(=O)[C@@H](CO)NC(=O)[C@@H](N)Cc1c[nH]cn1)[C@@H](C)O)[C@@H](C)O)C(=O)N[C@@H](CCC(=O)O)C(=O)N[C@@H](CO)C(=O)N[C@@H](CCCNC(=N)N)C(=O)N[C@@H](CCCNC(=N)N)C(=O)N[C@@H](C)C(=O)N[C@@H](CCC(N)=O)C(=O)N[C@@H](CC(=O)O)C(=O)N[C@@H](Cc1ccccc1)C(=O)N[C@H](C(=O)N[C@@H](CCC(=O)O)C(=O)N[C@@H](Cc1c[nH]c2ccccc12)C(=O)N[C@@H](CC(C)C)C(=O)N[C@@H](CCCCN)C(=O)N[C@@H](CC(N)=O)C(=O)N[C@@H](C)C(=O)NCC(=O)N1CCC[C@H]1C(=O)N[C@@H](CO)C(=O)N[C@@H](CO)C(=O)NCC(=O)N[C@@H](C)C(=O)N1CCC[C@H]1C(=O)N1CCC[C@H]1C(=O)N1CCC[C@H]1C(=O)N[C@@H](CO)C(N)=O)[C@@H](C)CC)C(=O)O [compound 95] | 0.0206 | 9.2
CCCCCCCCCCCCCCCC(=O)N[C@@H](CCC(=O)NCCCC[C@H](NC(=O)[C@H](CCC(N)=O)NC(=O)[C@H](CCCCN)NC(=O)[C@H](CO)NC(=O)[C@H](CC(C)C)NC(=O)[C@H](CC(=O)O)NC(=O)[C@H](CO)NC(=O)[C@@H](NC(=O)[C@H](Cc1ccccc1)NC(=O)[C@@H](NC(=O)CNC(=O)[C@H](CCC(N)=O)NC(=O)[C@@H](CO)NC(=O)[C@@H](N)Cc1c[nH]cn1)[C@@H](C)O)[C@@H](C)O)C(=O)N[C@@H](CCC(=O)O)C(=O)N[C@@H](CO)C(=O)N[C@@H](CCCNC(=N)N)C(=O)N[C@@H](CCCNC(=N)N)C(=O)N[C@@H](C)C(=O)N[C@@H](CCC(N)=O)C(=O)N[C@@H](CC(=O)O)C(=O)N[C@@H](Cc1ccccc1)C(=O)N[C@H](C(=O)N[C@@H](CCC(=O)O)C(=O)N[C@@H](Cc1c[nH]c2ccccc12)C(=O)N[C@@H](CC(C)C)C(=O)N[C@@H](CCCCN)C(=O)N[C@@H](CC(N)=O)C(=O)N[C@H](C(=O)NCC(=O)N1CCC[C@H]1C(=O)N[C@@H](CO)C(=O)N[C@@H](CO)C(=O)NCC(=O)N[C@@H](C)C(=O)N1CCC[C@H]1C(=O)N1CCC[C@H]1C(=O)N1CCC[C@H]1C(=O)N[C@@H](CO)C(N)=O)[C@@H](C)O)[C@@H](C)CC)C(=O)O [compound 96] | 0.0743 | 3.4
CCCCCCCCCCCCCCCC(=O)N[C@@H](CCC(=O)NCCCC[C@H](NC(=O)[C@H](CCC(N)=O)NC(=O)[C@H](CCCCN)NC(=O)[C@H](CO)NC(=O)[C@H](CC(C)C)NC(=O)[C@H](CC(=O)O)NC(=O)[C@H](CO)NC(=O)[C@@H](NC(=O)[C@H](Cc1ccccc1)NC(=O)[C@@H](NC(=O)CNC(=O)[C@H](CCC(N)=O)NC(=O)[C@@H](CO)NC(=O)[C@@H](N)Cc1c[nH]cn1)[C@@H](C)O)[C@@H](C)O)C(=O)N[C@@H](CC(=O)O)C(=O)N[C@@H](CO)C(=O)N[C@@H](CCCNC(=N)N)C(=O)N[C@@H](CCCNC(=N)N)C(=O)N[C@@H](C)C(=O)N[C@@H](CCC(N)=O)C(=O)N[C@@H](CC(=O)O)C(=O)N[C@@H](Cc1ccccc1)C(=O)N[C@H](C(=O)N[C@@H](CCC(=O)O)C(=O)N[C@@H](Cc1c[nH]c2ccccc12)C(=O)N[C@@H](CC(C)C)C(=O)N[C@@H](CCCCN)C(=O)N[C@@H](CC(N)=O)C(=O)NCC(=O)NCC(=O)N1CCC[C@H]1C(=O)N[C@@H](CO)C(=O)N[C@@H](CO)C(=O)NCC(=O)N[C@@H](C)C(=O)N1CCC[C@H]1C(=O)N1CCC[C@H]1C(=O)N1CCC[C@H]1C(=O)N[C@@H](CO)C(=O)NN1CCCC1)[C@@H](C)CC)C(=O)O [compound 98] | 0.0096 | 1.4
CCCCCCCCCCCCCCCC(=O)N[C@@H](CCC(=O)NCCCC[C@H](NC(=O)[C@H](CCC(N)=O)NC(=O)[C@H](CCCCN)NC(=O)[C@H](CO)NC(=O)[C@H](CC(C)C)NC(=O)[C@H](CC(=O)O)NC(=O)[C@H](CO)NC(=O)[C@@H](NC(=O)[C@H](Cc1ccccc1)NC(=O)[C@@H](NC(=O)CNC(=O)[C@H](CCC(N)=O)NC(=O)[C@@H](CO)NC(=O)[C@@H](N)Cc1c[nH]cn1)[C@@H](C)O)[C@@H](C)O)C(=O)N[C@@H](CC(=O)O)C(=O)N[C@@H](CO)C(=O)N[C@@H](CCCNC(=N)N)C(=O)N[C@@H](CCCNC(=N)N)C(=O)N[C@@H](C)C(=O)N[C@@H](CCC(N)=O)C(=O)N[C@@H](CC(=O)O)C(=O)N[C@@H](Cc1ccccc1)C(=O)N[C@H](C(=O)N[C@@H](CCC(=O)O)C(=O)N[C@@H](Cc1c[nH]c2ccccc12)C(=O)N[C@@H](CC(C)C)C(=O)N[C@@H](CCCCN)C(=O)N[C@@H](CC(N)=O)C(=O)NCC(=O)NCC(=O)N1CCC[C@H]1C(=O)N[C@@H](CO)C(=O)N[C@@H](CO)C(=O)NCC(=O)N[C@@H](C)C(=O)N1CCC[C@H]1C(=O)N1CCC[C@H]1C(=O)N1CCC[C@H]1C(=O)N[C@@H](CO)C(=O)NCc1ccccc1)[C@@H](C)CC)C(=O)O [compound 99] | 0.0159 | 2.6
CCCCCCCCCCCCCCCC(=O)N[C@@H](CCC(=O)NCCCC[C@H](NC(=O)[C@H](CCC(N)=O)NC(=O)[C@H](CCCCN)NC(=O)[C@H](CO)NC(=O)[C@H](CC(C)C)NC(=O)[C@H](CC(=O)O)NC(=O)[C@H](CO)NC(=O)[C@@H](NC(=O)[C@H](Cc1ccccc1)NC(=O)[C@@H](NC(=O)CNC(=O)[C@H](CCC(N)=O)NC(=O)[C@@H](CO)NC(=O)[C@@H](N)Cc1c[nH]cn1)[C@@H](C)O)[C@@H](C)O)C(=O)N[C@@H](CC(=O)O)C(=O)N[C@@H](CO)C(=O)N[C@@H](CCCNC(=N)N)C(=O)N[C@@H](CCCNC(=N)N)C(=O)N[C@@H](C)C(=O)N[C@@H](CCC(N)=O)C(=O)N[C@@H](CC(=O)O)C(=O)N[C@@H](Cc1ccccc1)C(=O)N[C@H](C(=O)N[C@@H](CCC(=O)O)C(=O)N[C@@H](Cc1c[nH]c2ccccc12)C(=O)N[C@@H](CC(C)C)C(=O)N[C@@H](CCCCN)C(=O)N[C@@H](CC(N)=O)C(=O)NCC(=O)NCC(=O)N1CCC[C@H]1C(=O)N[C@@H](CO)C(=O)N[C@@H](CO)C(=O)NCC(=O)N[C@@H](C)C(=O)N1CCC[C@H]1C(=O)N1CCC[C@H]1C(=O)N1CCC[C@H]1C(=O)N[C@@H](CO)C(=O)NC(C)(C)C)[C@@H](C)CC)C(=O)O [compound 100] | 0.0135 | 2
CCCCCCCCCCCCCCCC(=O)N[C@@H](CCC(=O)NCCCC[C@H](NC(=O)[C@H](CCC(N)=O)NC(=O)[C@H](CCCCN)NC(=O)[C@H](CO)NC(=O)[C@H](CC(C)C)NC(=O)[C@H](CC(=O)O)NC(=O)[C@H](CO)NC(=O)[C@@H](NC(=O)[C@H](Cc1ccccc1)NC(=O)[C@@H](NC(=O)CNC(=O)[C@H](CCC(N)=O)NC(=O)[C@@H](CO)NC(=O)[C@@H](N)Cc1c[nH]cn1)[C@@H](C)O)[C@@H](C)O)C(=O)N[C@@H](CC(=O)O)C(=O)N[C@@H](CO)C(=O)N[C@@H](CCCNC(=N)N)C(=O)N[C@@H](CCCNC(=N)N)C(=O)N[C@@H](C)C(=O)N[C@@H](CCC(N)=O)C(=O)N[C@@H](CC(=O)O)C(=O)N[C@@H](Cc1ccccc1)C(=O)N[C@H](C(=O)N[C@@H](CCC(=O)O)C(=O)N[C@@H](Cc1c[nH]c2ccccc12)C(=O)N[C@@H](CC(C)C)C(=O)N[C@@H](CCCCN)C(=O)N[C@@H](CC(N)=O)C(=O)NCC(=O)NCC(=O)N1CCC[C@H]1C(=O)N[C@@H](CO)C(=O)N[C@@H](CO)C(=O)NCC(=O)N[C@@H](C)C(=O)N1CCC[C@H]1C(=O)N1CCC[C@H]1C(=O)N1CCC[C@H]1C(=O)N[C@@H](CO)C(=O)N(CC)CC)[C@@H](C)CC)C(=O)O [compound 101] | 0.0098 | 1.7
CCCCCCCCCCCCCCCC(=O)N[C@@H](CCC(=O)NCCCC[C@H](NC(=O)[C@H](CCC(N)=O)NC(=O)[C@H](CCCCN)NC(=O)[C@H](CO)NC(=O)[C@H](CC(C)C)NC(=O)[C@H](CC(=O)O)NC(=O)[C@H](CO)NC(=O)[C@@H](NC(=O)[C@H](Cc1ccccc1)NC(=O)[C@@H](NC(=O)CNC(=O)[C@H](CCC(N)=O)NC(=O)[C@@H](CO)NC(=O)[C@@H](N)Cc1c[nH]cn1)[C@@H](C)O)[C@@H](C)O)C(=O)N[C@@H](CC(=O)O)C(=O)N[C@@H](CO)C(=O)N[C@@H](CCCNC(=N)N)C(=O)N[C@@H](CCCNC(=N)N)C(=O)N[C@@H](C)C(=O)N[C@@H](CCC(N)=O)C(=O)N[C@@H](CC(=O)O)C(=O)N[C@@H](Cc1ccccc1)C(=O)N[C@H](C(=O)N[C@@H](CCC(=O)O)C(=O)N[C@@H](Cc1c[nH]c2ccccc12)C(=O)N[C@@H](CC(C)C)C(=O)N[C@@H](CCCCN)C(=O)N[C@@H](CC(N)=O)C(=O)NCC(=O)NCC(=O)N1CCC[C@H]1C(=O)N[C@@H](CO)C(=O)N[C@@H](CO)C(=O)NCC(=O)N[C@@H](C)C(=O)N1CCC[C@H]1C(=O)N1CCC[C@H]1C(=O)N1CCC[C@H]1C(=O)N[C@@H](CO)C(=O)N1CCOCC1)[C@@H](C)CC)C(=O)O [compound 102] | 0.0072 | 1.1
